Read-outs that look alike come from different tables or passages of the source.

Chains of the proteins cited; added tags and fusions are not shown. A line that says so, or that is headed by a name, gives the form on record, which may keep a tag or linker.
UniProt P50391, with tags, fused parts or gaps with the stated changes: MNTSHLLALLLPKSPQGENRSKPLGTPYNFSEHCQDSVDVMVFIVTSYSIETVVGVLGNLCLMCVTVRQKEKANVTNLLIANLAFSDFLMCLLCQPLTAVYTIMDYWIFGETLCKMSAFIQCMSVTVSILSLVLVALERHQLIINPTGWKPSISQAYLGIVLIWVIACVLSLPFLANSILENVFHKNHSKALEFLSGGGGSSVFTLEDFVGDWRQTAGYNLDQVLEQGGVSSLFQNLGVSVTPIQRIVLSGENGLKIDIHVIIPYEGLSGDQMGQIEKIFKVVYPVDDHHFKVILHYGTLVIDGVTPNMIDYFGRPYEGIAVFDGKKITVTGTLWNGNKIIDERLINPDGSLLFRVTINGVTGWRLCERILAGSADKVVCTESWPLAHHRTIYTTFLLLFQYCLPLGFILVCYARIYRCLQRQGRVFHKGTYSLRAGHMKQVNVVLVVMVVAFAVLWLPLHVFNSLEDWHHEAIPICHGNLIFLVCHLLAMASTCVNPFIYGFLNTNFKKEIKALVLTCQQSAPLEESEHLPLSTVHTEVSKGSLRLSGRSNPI

In assay [1] the target is T1, hY4R (Homo sapiens, UniProt P50391). Description: Flow cytometric Y4R saturation and kinetic binding of fluorescent ligands (CHO-hY4R-Gqi5-mtAEQ cells). The conditions noted are these: buffer I (Na+-free), 22 ± 2 °C. Details: expressed in transfected cells; host or cells: CHO (co-expressing Gqi5 and mitochondrially targeted aequorin).
For assay [2], the target named is T1, hY4R. Briefly: Y4R radioligand competition binding, whole CHO-hY4R-Gqi5-mtAEQ cells, [3H]UR-KK200. Details: expressed in transfected cells; host or cells: CHO (co-expressing Gqi5 and mitochondrially targeted aequorin). To be noted: [3H]UR-KK200 c = 1 nM, read-out: pKi ± SEM hY4R (converted). As to the method:
All radioligand binding assays were performed at intact Y receptor expressing cells at 23 ± 2 °C.
(logarithmic form in the case of pKi values).
For orientation: In a radioligand displacement assay an active substance lowers the binding of a labelled ligand.

Assay [3] has as its target hY4R-Nluc(intraECL2) (Homo sapiens, UniProt P50391, INS195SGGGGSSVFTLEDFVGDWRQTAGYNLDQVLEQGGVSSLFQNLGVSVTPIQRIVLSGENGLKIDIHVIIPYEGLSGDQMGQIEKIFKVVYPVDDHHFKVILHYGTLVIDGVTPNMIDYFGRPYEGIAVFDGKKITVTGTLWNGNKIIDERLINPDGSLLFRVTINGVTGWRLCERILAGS). Format: binding. Also on record: expressed in transfected cells.
Assay [4] concerns the target T2, hY5R (Homo sapiens, UniProt Q15761).
T2 construct: expressed in transfected cells; host or cells: HEC-1B (human endometrial cancer)
T2 sequence (Q15761 1-445): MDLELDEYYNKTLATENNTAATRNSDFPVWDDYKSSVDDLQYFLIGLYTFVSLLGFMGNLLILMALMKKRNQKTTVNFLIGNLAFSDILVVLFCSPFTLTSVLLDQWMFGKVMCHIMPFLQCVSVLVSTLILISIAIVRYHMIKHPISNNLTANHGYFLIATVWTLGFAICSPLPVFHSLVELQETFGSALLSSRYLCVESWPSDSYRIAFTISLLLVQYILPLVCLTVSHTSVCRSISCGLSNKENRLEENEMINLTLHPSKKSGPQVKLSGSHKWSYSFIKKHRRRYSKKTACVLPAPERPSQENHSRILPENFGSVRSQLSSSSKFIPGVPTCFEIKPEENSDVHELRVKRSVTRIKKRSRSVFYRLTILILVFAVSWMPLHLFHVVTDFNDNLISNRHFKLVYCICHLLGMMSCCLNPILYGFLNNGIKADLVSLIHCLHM
To be noted: HEC-1B-hY5R cells; read-out: Kd of radioligand at Y5R; cited from earlier work.

For `CC(C)C[C@H](NC(=O)[C@@H]1CCCNC(N)=NC(=O)NCCCCNC(=O)[C@H](NC(=O)CCCNC(=O)CCC#Cc2ccc3c(c2)C(C)(C)C2=C4C=C5C6=[N+](CCC5OC4CCN23)c2ccc(S(=O)(=O)[O-])cc2C6(C)C)CC(=O)N[C@@H](CCCNC(=N)N)C(=O)N[C@@H](Cc2ccc(O)cc2)C(=O)N1)C(=O)N[C@@H](CCCNC(=N)N)C(=O)N[C@@H](Cc1ccc(O)cc1)C(N)=O` (stereo partly drawn) [Compound 16], the Kd (commonly the free concentration of one partner at which half of the binding sites on the other are occupied at equilibrium, for simple one-to-one binding) was 0.3 nM in assay [1] (saturation binding Kd); 0.275 nM in assay [1] (saturation binding pKd); 1.4 nM in assay [3] (koff(bi,fast)/kon(bi,fast), read-out: Kd(kin) bi, fast); 0.3 nM in assay [3] (koff(mono)/kon(mono), read-out: Kd(kin) mono). Moreover, the Ki in assay [2] is 0.195 nM.
As to “[^3H]propionyl-pNPY: tritiated propionylated porcine neuropeptide Y, radioligand for Y2R and Y5R”, in assay [4], the Kd was 11 nM.
